Biological target: T1, FLAG-tagged USF-1 (wild type, overexpressed in cells) (UniProt P22415)
T1 sequence (looked up): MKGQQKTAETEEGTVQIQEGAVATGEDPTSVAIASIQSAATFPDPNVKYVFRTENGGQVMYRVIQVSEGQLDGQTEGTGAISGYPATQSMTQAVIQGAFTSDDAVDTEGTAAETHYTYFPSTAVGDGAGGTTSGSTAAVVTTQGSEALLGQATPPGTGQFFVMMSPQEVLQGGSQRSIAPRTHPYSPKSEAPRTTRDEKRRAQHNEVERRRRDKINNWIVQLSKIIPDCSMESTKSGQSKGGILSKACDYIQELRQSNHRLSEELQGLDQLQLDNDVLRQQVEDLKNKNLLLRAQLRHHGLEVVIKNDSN
Assay: cell-based or functional assay

- FAS promoter activity (luciferase reporter) after siRNA knockdown of DNA-PK: 65 % reduction
Substance: DNA-dependent protein kinase (DNA-PK), endogenous (a stretch of the chain, sequence left out) (enzyme)

Source: US20110275699A1, “Treatment For Obesity And Diabetes” (University of California, priority 2010, published 2011)
